Measured values reported in PubChem BioAssay AID923 (National Center for Advancing Translational Sciences (NCATS), 2007).
The entries are a selection whose mix differs from that of the whole data set. Some results for these compounds are left out of this collection, so the calls shown say nothing about other tests. Active and inactive are the calls of the source. Calls come from the whole dose curve; as a rule, active = well fitted activation curve with a large enough effect; inconclusive = small, poorly fitted or top-dose-only effect; inactive = flat fitted curve, though single readings scatter.

Assay: qHTS Assay for Allosteric/Competitive Inhibitors of Caspase-1: Spectroscopic Profiling in AFC Spectral Region; note: 0% is about no effect
Details: compound fluorescence, AFC spectral region (405/520 nm); at 11.5 µM (top of the series) unless noted
For `CN1CCC[C@H](OC(=O)[C@](O)(c2ccccc2)C2CCCC2)C1`, the fluorescence increase was inactive: -1%. With `CN1CC[C@H](OC(=O)[C@](O)(c2ccccc2)C2CCCC2)C1` the fluorescence increase was inactive: 4.76%. With `O=C(OC1CN2CCC1CC2)C(CO)(c1ccccc1)c1ccccc1` (stereo not given) the fluorescence increase was inactive: -0.0419% [at 57.5 µM]. In the case of `C=C(C)C#C[C@@](O)(C(=O)OC1CCN(C)CC1)c1ccccc1`, the fluorescence increase is reported as inactive: 1.03%. With `CN(C)c1cccc(C(=O)NCC2(N(C)C)CCCCC2)c1` the fluorescence increase was inactive: 3.91% [at 57.5 µM].
